Molecular target: Serotonin 2 (5-HT2) receptor (Rattus norvegicus, UniProt P30994+P08909+P14842)
Test: The compound was tested in vitro for binding affinity towards 5-hydroxytryptamine 2 receptor by displacing [125]I-LSD radioligand
Assay type: protein assay

Sequences of proteins named here, by UniProt entry; tags and fusion partners are left off. A change or cut given only in a name is not applied to a line headed by its entry.
UniProt P30994: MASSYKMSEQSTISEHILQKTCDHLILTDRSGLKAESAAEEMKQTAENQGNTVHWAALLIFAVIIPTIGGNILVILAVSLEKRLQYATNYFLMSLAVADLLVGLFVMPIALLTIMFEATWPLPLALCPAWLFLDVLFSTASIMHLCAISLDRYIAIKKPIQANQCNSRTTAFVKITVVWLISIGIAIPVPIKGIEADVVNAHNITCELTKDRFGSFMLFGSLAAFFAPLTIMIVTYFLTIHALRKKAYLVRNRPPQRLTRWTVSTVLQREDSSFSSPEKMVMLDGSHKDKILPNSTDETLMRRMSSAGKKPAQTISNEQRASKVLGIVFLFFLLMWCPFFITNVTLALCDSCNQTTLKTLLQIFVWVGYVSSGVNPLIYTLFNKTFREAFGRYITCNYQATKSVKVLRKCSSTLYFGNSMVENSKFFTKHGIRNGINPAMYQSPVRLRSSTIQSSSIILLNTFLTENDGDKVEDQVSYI
UniProt P08909: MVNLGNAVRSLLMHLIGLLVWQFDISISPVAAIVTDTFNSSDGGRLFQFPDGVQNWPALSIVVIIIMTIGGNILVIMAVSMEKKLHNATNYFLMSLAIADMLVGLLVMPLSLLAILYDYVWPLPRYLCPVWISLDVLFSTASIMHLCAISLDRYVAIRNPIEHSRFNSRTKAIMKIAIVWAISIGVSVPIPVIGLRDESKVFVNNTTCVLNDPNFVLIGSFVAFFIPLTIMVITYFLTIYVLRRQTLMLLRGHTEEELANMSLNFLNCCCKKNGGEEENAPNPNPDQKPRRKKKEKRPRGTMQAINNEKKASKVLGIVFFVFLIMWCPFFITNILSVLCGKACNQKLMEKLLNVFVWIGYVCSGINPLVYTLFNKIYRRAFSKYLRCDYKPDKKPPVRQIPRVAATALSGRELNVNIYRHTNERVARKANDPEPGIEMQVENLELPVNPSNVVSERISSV
UniProt P14842: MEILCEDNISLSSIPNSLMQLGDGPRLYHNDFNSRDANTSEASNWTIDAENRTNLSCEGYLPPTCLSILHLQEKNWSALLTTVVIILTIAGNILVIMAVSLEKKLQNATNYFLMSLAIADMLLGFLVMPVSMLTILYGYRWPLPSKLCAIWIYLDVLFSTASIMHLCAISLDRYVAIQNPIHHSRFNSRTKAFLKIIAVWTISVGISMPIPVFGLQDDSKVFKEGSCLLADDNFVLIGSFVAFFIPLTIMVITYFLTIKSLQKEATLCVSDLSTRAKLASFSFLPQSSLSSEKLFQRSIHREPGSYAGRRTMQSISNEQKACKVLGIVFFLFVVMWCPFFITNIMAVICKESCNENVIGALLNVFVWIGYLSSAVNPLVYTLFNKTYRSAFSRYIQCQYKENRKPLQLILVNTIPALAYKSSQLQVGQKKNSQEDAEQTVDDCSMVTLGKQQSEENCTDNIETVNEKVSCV

O=C(CCCN1CCC2(CC1)C(=O)NCN2c1ccccc1)c1ccc(F)cc1 [SPIPERONE]
Ki: 0.45 nM

Source: ChEMBL document CHEMBL1125573 (J Med Chem, 1992)
